The values below come from CN108203464A.

Protein sequences, listed by entry. Tags and fused reporters are not part of them. Residues count along the entry.
UniProt Q15116, 25-167 limits assumed: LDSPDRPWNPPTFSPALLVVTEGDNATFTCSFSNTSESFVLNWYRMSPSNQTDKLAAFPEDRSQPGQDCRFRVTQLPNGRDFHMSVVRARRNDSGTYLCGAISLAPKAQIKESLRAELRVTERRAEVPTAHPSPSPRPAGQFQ
UniProt Q15116, 25-288: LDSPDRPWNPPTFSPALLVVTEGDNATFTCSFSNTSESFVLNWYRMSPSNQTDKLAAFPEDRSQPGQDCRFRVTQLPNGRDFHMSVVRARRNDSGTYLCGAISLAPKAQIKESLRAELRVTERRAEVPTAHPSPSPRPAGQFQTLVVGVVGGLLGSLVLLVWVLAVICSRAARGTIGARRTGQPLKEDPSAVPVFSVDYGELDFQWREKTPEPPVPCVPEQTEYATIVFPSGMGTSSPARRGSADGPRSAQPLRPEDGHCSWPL
UniProt Q15116, 25-170 limits assumed: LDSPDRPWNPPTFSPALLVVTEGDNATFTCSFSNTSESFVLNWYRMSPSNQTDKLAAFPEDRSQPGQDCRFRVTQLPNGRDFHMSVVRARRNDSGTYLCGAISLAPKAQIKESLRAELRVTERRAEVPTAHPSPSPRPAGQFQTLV

For assay [1], the target named is 重组人PD-1蛋白 (recombinant human PD-1 protein) (human) (UniProt Q15116). Put plainly: competition ELISA: human PD-1 coated, biotin-PD-L1-Fc 0.15 μg/ml as competitor.
The target in assay [2] is human PD-1 expressed on cells (human) (UniProt Q15116). Put plainly: cell-based or functional assay.
Assay [3] deals with 重组蛋白PD-1-Fc (GenScript, Z03370): human PD-1 extracellular domain fused to human IgG1 Fc (human) (UniProt Q15116). Put plainly: indirect ELISA, PD-1-Fc coated at 0.5 μg/ml.

One may read the IC50 as the concentration at which inhibition is half-maximal. What is called EC50 is the midpoint of the concentration-response curve. Higher therefore signals lower potency in that assay. With “Pembrolizumab (Keytruda), Merck & Co., Inc (antibody)”, the 50% inhibitory concentration (IC50) in assay [1] amounted to 0.224 µg/mL. In assay [2], the IL-2 secretion, mixed lymphocyte reaction (CD4+ T cells + allogeneic dendritic cells), EC50 turned out to be 0.144 μg/ml and the RLU, NFAT-RE reporter effector cells (PD-1) co-cultured with PD-L1 target cells, EC50 was found to be 0.327 µg/mL. The substance further gave an EC50 in assay [3] of 0.00915 µg/mL.
